The text below walks through data of US20010014345A1, “MATERIAL, METHOD AND APPARATUS FOR INHIBITING BACTERIAL GROWTH IN AN AQUEOUS MEDIUM” (priority 1995, published 2001).

A short description of the data set: Partition coefficients between octanol and water by UV/visible absorption.

5-chloro-2-n-octyl-isothiazolin-3-one came in with a P (partition coefficient between octanol and water) (25° C., UV/visible absorption) above 2.75. In addition, where the note is “not marked # (not calculated)”, the Log P (in general, a log measure of how a compound divides between an organic and an aqueous phase) was above 2.75.
